The structures appear in SMILES notation.

Amino acid sequences for entries named in this document (tags omitted). Residues count along the entry.
UniProt P25774, 115-331: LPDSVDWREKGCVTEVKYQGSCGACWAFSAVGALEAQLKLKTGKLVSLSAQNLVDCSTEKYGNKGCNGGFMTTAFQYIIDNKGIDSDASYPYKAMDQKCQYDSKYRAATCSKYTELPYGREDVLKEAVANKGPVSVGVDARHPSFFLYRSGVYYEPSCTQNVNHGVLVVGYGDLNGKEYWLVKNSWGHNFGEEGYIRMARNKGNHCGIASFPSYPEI

Our source for the IC50 values is patent publication US6953793B2 (priority 2000, dated 2005).

This test addresses T1, Recombinant human cathepsin S (CatS) (Homo sapiens, UniProt P25774).
T1 construct: made in house; host or cells: baculovirus system (insect cells)
In words: biochemical.
Consider `CC(=O)N1CCc2c(c(-c3ccc(Cl)c(C)c3)nn2CC(O)CN2CCC(n3c(=O)n(CCN4C(=O)c5ccccc5C4=O)c4ccccc43)CC2)C1` (centres unmarked) [Example 296, 2-{2-[3-(1-{3-[5-Acetyl-3-(4-chloro-3-methyl-phenyl)-4,5,6,7-tetrahydro-pyrazolo[4,3-c]pyridin-1-yl]-2-hydroxy-propyl}-piperidin-4-yl)-2-oxo-2,3-dihydro-benzoimidazol-1-yl]-ethyl}-isoindole-1,3-dione], for which the IC50 was found to be 340 nM.
The value for `CC(=O)N1CCc2c(c(-c3ccc(C(F)(F)F)cc3)nn2CC(O)CN2CCC(Oc3ccc(Cl)cc3)CC2)C1` (centres unmarked) [Example 249, 1-[1-{3-[4-(4-Chloro-phenoxy)-piperidin-1-yl]-2-hydroxy-propyl}-3-(4-trifluoromethyl-phenyl)-1,4,6,7-tetrahydro-pyrazolo[4,3-c]pyridin-5-yl]-ethanone] was 690 nM.
For `CCN(CC)CCn1c(=O)n(C2CCN(CC(O)Cn3nc(-c4ccc(Cl)c(C)c4)c4c3CCN(C(C)=O)C4)CC2)c2ccccc21` (centres unmarked) [Example 320, 1-(1-{3-[5-Acetyl-3-(4-chloro-3-methyl-phenyl)-4,5,6,7-tetrahydro-pyrazolo[4,3-c]pyridin-1-yl]-2-hydroxy-propyl}-piperidin-4-yl)-3-(2-diethylamino-ethyl)-1,3-dihydro-benzoimidazol-2-one] the value was 390 nM; for `Cc1cc(C(=O)N2CCc3c(c(-c4ccc(C(F)(F)F)cc4)nn3CCCN3CCC(n4c(=O)n(C)c5ccccc54)CC3)C2)no1` [Example 336, 1-Methyl-3-(1-{3-[5-(5-methyl-isoxazole-3-carbonyl)-3-(4-trifluoromethyl-phenyl)-4,5,6,7-tetrahydro-pyrazolo[4,3-c]pyridin-1-yl]-propyl}-piperidin-4-yl)-1,3-dihydro-benzoimidazol-2-one], 160 nM; for `CNC(=S)N1CCc2c(c(-c3ccc(C(F)(F)F)cc3)nn2CCCN2CCC(n3c(=O)n(C)c4ccccc43)CC2)C1` [Example 347, 1-{3-[4-(3-Methyl-2-oxo-2,3-dihydro-benzoimidazol-1-yl)-piperidin-1-yl]-propyl}-3-(4-trifluoromethyl-phenyl)-1,4,6,7-tetrahydro-pyrazolo[4,3-c]pyridine-5-carbothioic acid methylamide], 480 nM.
For `NC(=O)N1CCc2c(c(-c3ccc(C(F)(F)F)cc3)nn2CC(O)CN2CCC(n3c(=O)[nH]c4ccccc43)CC2)C1` (centres unmarked) [Example 269, 1-{2-Hydroxy-3-[4-(2-oxo-2,3-dihydro-benzoimidazol-1-yl)-piperidin-1-yl]-propyl}-3-(4-trifluoromethyl-phenyl)-1,4,6,7-tetrahydro-pyrazolo[4,3-c]pyridine-5-carboxylic acid amide] the value was 120 nM; for `CC(=O)N1CCc2c(c(-c3ccc(C(F)(F)F)cc3)nn2CC(O)CN2CCC(Oc3nc4ccccc4o3)CC2)C1` (centres unmarked) [Example 111, 1-[1-{3-[4-(Benzooxazol-2-yloxy)-piperidin-1-yl]-2-hydroxy-propyl}-3-(4-trifluoromethyl-phenyl)-1,4,6,7-tetrahydro-pyrazolo[4,3-c]pyridin-5-yl]-ethanone], 1200 nM.
Take `CCS(=O)(=O)c1ccc(OCC(=O)OC)c(NC2CCN(CCCn3nc(-c4ccc(Br)cc4)c4c3CCN(C(N)=O)C4)CC2)c1` [Example 228, [2-(1-{3-[3-(4-Bromo-phenyl)-5-carbamoyl-4,5,6,7-tetrahydro-pyrazolo[4,3-c]pyridin-1-yl]-propyl}-piperidin-4-ylamino)-4-ethanesulfonyl-phenoxy]-acetic acid methyl ester]: the IC50 is 170 nM.
Regarding `Cn1c(=O)n(C2CCN(CCCn3nc(-c4ccc(C(F)(F)F)cc4)c4c3CCN(C(=O)c3ccno3)C4)CC2)c2ccccc21` [Example 334, 1-(1-{3-[5-(Isoxazole-5-carbonyl)-3-(4-trifluoromethyl-phenyl)-4,5,6,7-tetrahydro-pyrazolo[4,3-c]pyridin-1-yl]-propyl}-piperidin-4-yl)-3-methyl-1,3-dihydro-benzoimidazol-2-one], the IC50 is 80 nM.
For `CC(=O)N1CCc2c(c(-c3ccc(Br)cc3)nn2CC(O)CN2CCC(n3c(=O)[nH]c4cccc(Cl)c43)CC2)C1` (centres unmarked) [Example 286, 1-(1-{3-[5-Acetyl-3-(4-bromo-phenyl)-4,5,6,7-tetrahydro-pyrazolo[4,3-c]pyridin-1-yl]-2-hydroxy-propyl}-piperidin-4-yl)-7-chloro-1,3-dihydro-benzoimidazol-2-one] the value was 210 nM; for `Cn1c(=O)n(C2CCN(CCCn3nc(-c4ccc(Br)cc4)c4c3CCN(C(N)=O)C4)CC2)c2cc(Cl)ccc21` [Example 359, 3-(4-Bromo-phenyl)-1-{3-[4-(6-chloro-3-methyl-2-oxo-2,3-dihydro-benzoimidazol-1-yl)-piperidin-1-yl]-propyl}-1,4,6,7-tetrahydro-pyrazolo[4,3-c]pyridine-5-carboxylic acid amide], 40 nM; for `Cn1c(=O)n(C2CCN(CCCn3nc(-c4ccc(C(F)(F)F)cc4)c4c3CCN(S(=O)(=O)NC(=O)OC(C)(C)C)C4)CC2)c2ccccc21` [Example 335, 1-{3-[4-(3-Methyl-2-oxo-2,3-dihydro-benzoimidazol-1-yl)-piperidin-1-yl]-propyl}-3-(4-trifluoromethyl-phenyl)-1,4,6,7-tetrahydro-pyrazolo[4,3-c]pyridine-5-sulfonic acid (N-t-butoxycarbonyl)amide], 390 nM.
The value for `CC(=O)N1CCc2c(c(-c3ccc(Cl)c(C)c3)nn2CC(O)CN2CCC(n3c(=O)oc4ccccc43)CC2)C1` (centres unmarked) [Example 395, 3-(1-{3-[5-Acetyl-3-(4-chloro-3-methyl-phenyl)-4,5,6,7-tetrahydro-pyrazolo[4,3-c]pyridin-1-yl]-2-hydroxy-propyl}-piperidin-4-yl)-3H-benzooxazol-2-one] was 390 nM; that for `NC(=O)N1CCc2c(c(-c3ccc(Br)cc3)nn2CCCN2CCC(n3c(=O)[nH]c4ccccc43)CC2)C1` [Example 366, 3-(4-Bromo-phenyl)-1-{3-[4-(2-oxo-2,3-dihydro-benzoimidazol-1-yl)-piperidin-1-yl]-propyl}-1,4,6,7-tetrahydro-pyrazolo[4,3-c]pyridine-5-carboxylic acid amide] was 50 nM; that for `CC(=O)N1CCc2c(c(-c3ccc(Cl)c(C)c3)nn2CC(O)CN2CCC(n3c(=O)n(CC4CC4)c4ccccc43)CC2)C1` (centres unmarked) [Example 321, 1-(1-{3-[5-Acetyl-3-(4-chloro-3-methyl-phenyl)-4,5,6,7-tetrahydro-pyrazolo[4,3-c]pyridin-1-yl]-2-hydroxy-propyl}-piperidin-4-yl)-3-cyclopropylmethyl-1,3-dihydro-benzoimidazol-2-one] was 80 nM.
`Cn1c(=O)n(C2CCN(CC(O)Cn3nc(-c4ccc(C(F)(F)F)cc4)c4c3CCN(S(C)(=O)=O)C4)CC2)c2ncccc21` (centres unmarked) [Example 330, 3-(1-{2-Hydroxy-3-[5-methanesulfonyl-3-(4-trifluoromethyl-phenyl)-4,5,6,7-tetrahydro-pyrazolo[4,3-c]pyridin-1-yl]-propyl}-piperidin-4-yl)-1-methyl-1,3-dihydro-imidazo[4,5-b]pyridin-2-one]: the 50% inhibitory concentration (IC50) worked out at 60 nM.
The value for `CC(=O)N1CCc2c(c(-c3ccc(Cl)c(C)c3)nn2CC(O)CN2CCC(N3c4ccccc4CC3C)CC2)C1` (centres unmarked) [Example 176, 1-(3-(4-Chloro-3-methyl-phenyl)-1-{2-hydroxy-3-[4-(2-methyl-2,3-dihydro-indol-1-yl)-piperidin-1-yl]-propyl}-1,4,6,7-tetrahydro-pyrazolo[4,3-c]pyridin-5-yl)-ethanone] was 830 nM; that for `CS(=O)(=O)N1CCc2c(c(-c3ccc(C(F)(F)F)cc3)nn2CC(O)CN2CCC(n3c(=O)[nH]c4ccc(Cl)cc43)CC2)C1` (centres unmarked) [Example 325, 6-Chloro-1-(1-{2-hydroxy-3-[5-methanesulfonyl-3-(4-trifluoromethyl-phenyl)-4,5,6,7-tetrahydro-pyrazolo[4,3-c]pyridin-1-yl]-propyl}-piperidin-4-yl)-1,3-dihydro-benzoimidazol-2-one] was 90 nM.
The value for `CC(=O)N1CCc2c(c(-c3ccc(C(F)(F)F)cc3)nn2CC(O)CN2CCC(n3c(=O)n(C)c4ccccc43)CC2)C1` (centres unmarked) [Example 300, 1-(1-{3-[5-Acetyl-3-(4-trifluoromethyl-phenyl)-4,5,6,7-tetrahydro-pyrazolo[4,3-c]pyridin-1-yl]-2-hydroxy-propyl}-piperidin-4-yl)-3-methyl-1,3-dihydro-benzoimidazol-2-one] was 140 nM; that for `CC(=O)N1CCc2c(c(-c3ccc(Br)cc3)nn2C[C@H](O)CN2CCC(n3c(=O)[nH]c4ccccc43)CC2)C1` [Example 284, (R)-1-(1-{3-[5-Acetyl-3-(4-bromo-phenyl)-4,5,6,7-tetrahydro-pyrazolo[4,3-c]pyridin-1-yl]-2-hydroxy-propyl}-piperidin-4-yl)-1,3-dihydro-benzoimidazol-2-one] was 260 nM; that for `Cn1c(=O)n(C2CCN(CCCn3nc(-c4ccc(C(F)(F)F)cc4)c4c3CCN(C(=O)c3c[nH]cn3)C4)CC2)c2ccccc21` [Example 331, 1-(1-{3-[5-(1H-Imidazole-4-carbonyl)-3-(4-trifluoromethyl-phenyl)-4,5,6,7-tetrahydro-pyrazolo[4,3-c]pyridin-1-yl]-propyl}-piperidin-4-yl)-3-methyl-1,3-dihydro-benzoimidazol-2-one] was 60 nM.
`CC(=O)N1CCc2c(c(-c3ccc(C(F)(F)F)cc3)nn2CC(O)CN2CCC(n3c(=O)[nH]c4cccnc43)CC2)C1` (centres unmarked) [Example 314, 3-(1-{3-[5-Acetyl-3-(4-trifluoromethyl-phenyl)-4,5,6,7-tetrahydro-pyrazolo[4,3-c]pyridin-1-yl]-2-hydroxy-propyl}-piperidin-4-yl)-1,3-dihydro-imidazo[4,5-b]pyridin-2-one]: the IC50 turned out to be 140 nM.
As to `CC(C)(C)OC(=O)NS(=O)(=O)N1CCc2c(c(-c3ccc(Br)cc3)nn2CCCN2CCC(n3c(=O)[nH]c4ccccc43)CC2)C1` [Example 365, 3-(4-Bromo-phenyl)-1-{3-[4-(2-oxo-2,3-dihydro-benzoimidazol-1-yl)-piperidin-1-yl]-propyl}-1,4,6,7-tetrahydro-pyrazolo[4,3-c]pyridine-5-sulfonic acid t-butoxycarbonyl-amide], the IC50 worked out at 110 nM.

By IC50 is commonly meant the point on the concentration scale where inhibition reaches its midpoint.
